By UniProt entry, the sequences of proteins in these tests, tags left out. Residues count along the entry.
UniProt P10275, 673-918: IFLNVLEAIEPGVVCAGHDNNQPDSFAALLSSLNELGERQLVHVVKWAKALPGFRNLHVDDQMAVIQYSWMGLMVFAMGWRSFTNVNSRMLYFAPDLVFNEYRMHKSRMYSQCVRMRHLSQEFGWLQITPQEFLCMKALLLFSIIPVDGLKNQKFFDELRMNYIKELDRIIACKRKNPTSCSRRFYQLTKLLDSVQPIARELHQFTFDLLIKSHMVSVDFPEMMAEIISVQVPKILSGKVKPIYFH

According to patent EP4810484A1, “NEUROACTIVE ANDROGEN RECEPTOR MODULATOR AND USE THEREOF” (Endochem Pharmaceuticals (Beijing) Co., Ltd., priority 2023, dated 2025):

Assays:
[1] = mouse, high-resolution mass spectrometry
[2] = target: T1, recombinant human androgen receptor (AR) protein (Homo sapiens, UniProt P10275); experiment: Small molecule-protein affinity (protein-ligand coupling) assay, Biacore T200 SPR; assay type: binding
T1 construct: RPB252Hu03, Ile673-His918 with N-terminal His Tag; His tag (N); purchased CLOUD-CLONE CORP; WUHAN RPB252Hu03

| SMILES | metabolites detected after administration (identity) [1] | Kd [2] [µM] |
| --- | --- | --- |
| C[C@@](COc1ccc(C#N)cc1)(OC(=O)CCCC[C@@H]1CCSS1)C(=O)Nc1cnc(C#N)c(C(F)(F)F)c1 | corresponded to the compound of Example 3 |  |
| C[C@@](COc1ccc(C#N)cc1)(OC(=O)c1ccccc1)C(=O)Nc1cnc(C#N)c(C(F)(F)F)c1 [Example 26, (S)-1-((6-cyano-5-(trifluoromethyl)pyridin-3-yl)amino)-3-(4-cyanophenoxy)-2-methyl-1-oxopropan-2-yl benzoate] |  | 55 |
